The test system of the assay is H3K27me3 at Ink4a locus and EZH2 target genes in PDGFB NSCs. The experiment in a line: ChIP-qPCR analysis of H3K27me3 enrichment (FIG. 2E, 2F). As to conditions: FIG. 2F.

Turning to `CCN(c1cc(-c2ccc(CN3CCOCC3)cc2)cc(C(=O)NCc2c(C)cc(C)[nH]c2=O)c1C)C1CCOCC1` [EPZ6438], the “H3K27me3 on several EZH2 target genes by ChIP-qPCR” value is “strongly reduced”.
